SMILES strings stand for the structures.

Data on one molecule can be found in patent US10106559B2, “Substituted tetrahydrocarbazole and carbazole carboxamide compounds” (BRISTOL-MYERS SQUIBB COMPANY, priority 2013, dated 2018).

The experiment deals with CD69 expression on B cells in human whole blood. Description: Whole Blood Assay of BCR-Stimulated CD69 Expression on B Cells. Type of experiment: cell-based. To be noted: B-cell.

By IC50 is commonly meant the concentration that inhibits the measured activity by half. Higher therefore signals lower potency. With `Cc1cc(C(N)=O)c2[nH]c3cc(C(C)(C)O)ccc3c2c1-c1cccc(-n2c(=O)cc3c(Cl)cccn3c2=O)c1C` [Example 71], the IC50 is 240 nM.
